{"source": "patent US4007282A", "about": "“Lowering lipid and sugar levels in the blood with a bis(4-hydroxyphenyl)alkanoic acid or ester thereof” (Hoechst Aktiengesellschaft, priority 1972, dated 1977)", "assay": "in vivo", "conditions": "mouse, po", "data": [{"smiles": "CC(CCC(=O)O)(c1ccc(O)cc1)c1ccc(O)cc1", "note": "[Example 19, 4,4-Bis(4'-hydroxy-phenyl)pentanoic acid]", "values": [{"measurement": "LD50", "value": 4000, "unit": "mg/kg"}]}]}
